B1: Gαo wild-type (non-tagged) [human] / GFP-Ric8A [not stated] (parent complex)
chain 1: MGCTLSAEERAALERSKAIEKNLKEDGISAAKDVKLLLLGAGESGKSTIVKQMKIIHEDGFSGEDVKQYKPVVYSNTIQSLAAIVRAMDTLGIEYGDKERKADAKMVCDVVSRMEDTEPFSAELLSAMMRLWGDSGIQECFNRSREYQLNDSAKYYLDSLDRIGAADYQPTEQDILRTRVKTTGIVETHFTFKNLHFRLFDVGGQRSERKKWIHCFEDVTAIIFCVALSGYDQVLHEDETTNRMHESLMLFDSICNNKFFIDTSIILFLNKKDLFGEKIKKSPLTICFPEYTGPNTYEDAAAYIQAQFESKNRSPNKEIYCHMTCATDTNNIQVVFDAVTDIIIANNLRGCGLY
chain 2: MEPRAVAEAVETGEEDVIMEALRSYNQEHSQSFTFDDAQQEDRKRLAELLVSVLEQGLPPSHRVIWLQSVRILSRDRNCLDPFTSRQSLQALACYADISVSEGSVPESADMDVVLESLKCLCNLVLSSPVAQMLAAEARLVVKLTERVGLYRERSFPHDVQFFDLRLLFLLTALRTDVRQQLFQELKGVRLLTDTLELTLGVTPEGNPPPTLLPSQETERAMEILKVLFNITLDSIKGEVDEEDAALYRHLGTLLRHCVMIATAGDRTEEFHGHAVNLLGNLPLKCLDVLLTLEPHGDSTEFMGVNMDVIRALLIFLEKRLHKTHRLKESVAPVLSVLTECARMHRPARKFLKAQVLPPLRDVRTRPEVGEMLRNKLVRLMTHLDTDVKRVAAEFLFVLCSESVPRFIKYTGYGNAAGLLAARGLMAGGRPEGQYSEDEDTDTDEYKEAKASINPVTGRVEEKPPNPMEGMTEEQKEHEAMKLVTMFDKLSRNRVIQPMGMSPRGHLTSLQDAMCETMEQQLSSDPDSDPD

In this test the parent is B1. As to the kind of experiment: co-immunoprecipitation (GFP nanobody IP, Western blot quantification); HEK293T cells; n = 4; parent: 1; read off a plot.
On to chain 1 T327K, for which the ratio to parent is roughly 6.4. For the variant chain 1 T327R, the ratio to parent is roughly 5.7.
